Screening results as filed in PubChem BioAssay.
Yeast UUG start: alters start codon recognition fidelity in yeast. S. cerevisiae UUG-firefly luciferase reporter, luminescence/redox ratio. AID 602363. activity score, % at 18.7 µM. hit rate 0.13% among 350,000;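 active = replicate mean at a twofold rise or more, about +100% in these data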;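 note: firefly luciferase made from a UUG start codon reports start codon fidelity; reporter light over untreated wells divided by growth signal over untreated wells; some hits fall short of that in this replicate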
CAL PDZ FP-1: human CAL PDZ-peptide interaction inhibition | 330,000 tested, 0.02% active | AID 504414 | purified CAL PDZ, TMR-peptide fluorescence polarization, 1 h | inhibition, % at 20 µM;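 active means highest replicate inhibition of at least 40%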;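 further: plate controls were DMSO neutral control wells for no effect and unlabeled competitor peptide control wells for full effect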
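Assay system – tagged CAL PDZ protein CerCALP, purified · Timing – 1 h at RT · Compound – single point, 20 µM · Measured by – fluorescence polarization from S- and P-plane intensities, G-factor corrected · Evaluation – inhibition from polarization loss · Probe or stimulus – TMR reporter peptide T*-PRC34 · Buffer or medium – pH 7.4 phosphate-saline buffer, reducing agent, detergent, IgG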
CAL PDZ FP-2: CAL PDZ (human) peptide binding inhibition | Q9HD26 | purified CAL PDZ, TMR-peptide fluorescence polarization, 1 h | 300,000 tested, 0.92% active | inhibition, % at 24.9 µM;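 active means mean inhibition of at least 30% with at least half of replicates also reaching 30%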;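 further: 0% = DMSO neutral control and 100% = excess unlabeled competitor peptide PRC23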
PglD DTNB: PglD (C. jejuni) enzyme inhibition | purified PglD enzyme, DTNB colorimetric CoA detection | inhibition, % at 12.5 µM | 360,000 tested, 0.098% active | AID 602405; in the data active means inhibition above about 16%, passing the limit was not always enough
ARNT TACC3 PPI: ARNT/TACC3 interaction disruption | Q9Y6A5 | inhibition, % at 9.99 µM | AlphaScreen His-ARNT PAS-B/GST-TACC3 binding, luminescence; TACC3 fragment carries E629A point mutation | 390,000 tested, 0.66% active;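 active means mean inhibition of replicates at least 50% and at least half of replicates each reaching 50%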;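 further: 0% = complete ARNT plus TACC3 wells and 100% = ARNT alone without TACC3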
Vif imaging: HIV Vif inhibition; HEK293T cells, Vif self-association by quenched fluorescence, imaging, 24 h; inhibition, % at 7.49 µM; 340,000 tested, 0.35% active; in the data active means inhibition above about 50%, passing the limit was not always enough
Active calls of the source: *; · = not tested or not shown. An excerpt weighted towards active compounds, which were near 1.6% of everything screened.

| SMILES | PglD DTNB | CAL PDZ FP-1 | CAL PDZ FP-2 | Yeast UUG start | Vif imaging | ARNT TACC3 PPI |
| --- | --- | --- | --- | --- | --- | --- |
| Cc1nc(SCC(=O)O)c2oc3ccccc3c2n1 | -3 | 0 | -8 | -9 | 3 | 1 |
| Cc1nc(SCC(=O)N2CCN(c3ccccc3)CC2)c2oc3ccccc3c2n1 | · | -1 | 64* | -17 | -5 | 3 |
| Cc1ccc(NNC(=O)c2cc(C(C)(C)C)nn2Cc2ccccc2)cc1 | -3 | 0 | -8 | -6 | -2 | -2 |
| CC(C)(C)c1cc(C(=O)NNc2cccc(Cl)c2)n(Cc2ccccc2)n1 | 4 | -1 | 66* | -10 | -11 | 5 |
| CCOCCc1nnc(NC(=O)CS(=O)(=O)c2ccc(C)cc2)s1 | -4 | 0 | 93* | -9 | 12 | -3 |
| C[C@H]1CN([C@@H](C)CO)C(=O)c2cccc(NS(=O)(=O)c3ccc(F)cc3)c2O[C@@H]1CN(C)Cc1ccc(C(=O)O)cc1 | 1 | · | · | 11 | · | -19 |
| C/C(=N/NC(=O)Cc1cc(=O)[nH][nH]1)c1ccc([N+](=O)[O-])cc1 | · | -2 | 36* | · | -3 | -4 |
| C/C(=N\NC(=O)Cc1cc(=O)[nH][nH]1)c1cccc([N+](=O)[O-])c1 | · | -1 | -7 | · | -1 | 4 |
| Cc1ccc(S(=O)(=O)NCC[C@H]2CC[C@@H](NC(=O)CCN3CCCCC3)[C@H](CO)O2)cc1 | 1 | · | · | 0 | · | -16 |
| Cc1ccccc1/C=N/NC(=O)Cn1cnc([N+](=O)[O-])n1 | · | 0 | -3 | -10 | -1 | 4 |
| O=C(Cn1cncn1)N/N=C/c1ccccc1O | · | -2 | 0 | · | -19 | 78* |
| O=C(Cn1cnc([N+](=O)[O-])n1)N/N=C/c1ccccc1O | · | 0 | 0 | · | 0 | 75* |

(more compounds)
| SMILES | PglD DTNB | CAL PDZ FP-1 | CAL PDZ FP-2 | Yeast UUG start | Vif imaging | ARNT TACC3 PPI |
| --- | --- | --- | --- | --- | --- | --- |
| O=C(C[C@H]1CC[C@@H](NC(=O)c2ccccc2)[C@H](CO)O1)NCCc1ccncc1 | -2 | · | · | -5 | · | -8 |
| C[C@@H]1CN([C@@H](C)CO)C(=O)c2cccc(N(C)C)c2O[C@@H]1CN(C)S(=O)(=O)c1cn(C)cn1 | -1 | · | · | -10 | · | · |
| COc1ccc(Oc2ccc(/C=C/C(=O)c3ccc(O)cc3)cc2[N+](=O)[O-])cc1 | · | 0 | 61* | · | -1 | 20 |
| c1ccc2c(c1)CC1(CCCC1)N=C2N1CCOCC1 | 2 | 0 | 68* | -11 | 4 | -4 |
| Cc1ccc(NC(=O)C(SCC(=O)O)c2ccccc2)cc1C (stereo not drawn) | 0 | 0 | 69* | -14 | 17 | 0 |
| C[C@@H]1CN([C@@H](C)CO)C(=O)Cc2cc(NS(=O)(=O)c3cccs3)ccc2O[C@@H]1CN(C)Cc1ccc(Cl)c(Cl)c1 | -3 | · | · | 6 | · | 1 |
| O=C(Nc1ccccc1)c1ccc(CN2CCc3ccccc3C2)cc1 | · | 1 | 5 | · | -5 | -4 |
| O=C(Nc1ccccc1F)c1ccc(CN2CCc3ccccc3C2)cc1 | 11 | · | 132* | -10 | -14 | -7 |
| OC(CSc1ccncc1)CC(O)c1ccccc1 (stereo not drawn) | 0 | · | · | -6 | · | -2 |
| COc1ccccc1-n1ccnc1SCC(=O)NC1CCCC1 | · | -2 | -4 | · | -6 | -4 |
| COc1cc(-n2ccnc2SC)c(Cl)cc1Cl | 6 | 0 | 54* | -6 | -4 | 1 |
| O=C(c1ccc(F)cc1F)N1CCN(S(=O)(=O)c2ccc3c(c2)OCCO3)CC1 | 1 | -1 | 31* | -6 | -3 | -2 |

Next part:
| SMILES | PglD DTNB | CAL PDZ FP-1 | CAL PDZ FP-2 | Yeast UUG start | Vif imaging | ARNT TACC3 PPI |
| --- | --- | --- | --- | --- | --- | --- |
| CCn1c(COc2ccccc2C)nnc1SCC(=O)NCc1ccccc1 | · | -2 | · | · | 15 | 2 |
| CCn1c(COc2cccc3ccccc23)nnc1SCC(N)=O | -3 | -1 | 52* | -10 | -9 | -4 |
| Cc1ccc(S(=O)(=O)Nc2cccc3c2O[C@H](CN(C)S(=O)(=O)c2cccs2)[C@@H](C)CN([C@@H](C)CO)C3=O)cc1 | -2 | · | · | 1 | · | 1 |
| Cc1nnc(NC(=O)CSc2nnc(NC(=O)C(C)(C)C)s2)s1 | -2 | -1 | · | -6 | 75* | -7 |
| Cc1nnc(SCC(=O)Nc2nccs2)s1 | -1 | 1 | 79* | -34 | -2 | -26 |
| Nc1nnc(SCC(=O)Nc2nccs2)s1 | · | -1 | · | · | 0 | 0 |
| COc1ccc(NC(=O)Nc2ccc3c(c2)CC(=O)N([C@@H](C)CO)C[C@@H](C)[C@@H](CN(C)C(=O)Nc2c(C)noc2C)O3)cc1 | 3 | · | · | -25 | · | -10 |
| Cc1ccc(-c2noc(C3CCCN(C(=O)c4ccccc4)C3)n2)o1 (stereo not drawn) | 2 | · | 6 | 9 | 6 | -10 |
| CCOc1ccccc1NC(=O)N1CCCC(c2nc(-c3ccc(C)o3)no2)C1 (stereo not drawn) | · | -1 | 76* | · | 5 | 3 |
| O=C(NCCc1ccccc1)[C@@H]1[C@@H](CO)[C@@H]2Cn3c(cccc3=O)[C@H]1N2C(=O)C1CCCC1 | 1 | · | · | 0 | · | -6 |
| Cc1ccccc1-c1cnc2c(c1)C(=O)N([C@H](C)CO)C[C@H](C)[C@H](CN(C)C(=O)c1ccncc1)O2 | -4 | · | · | 1 | · | 3 |
| COCC#Cc1cnc2c(c1)C(=O)N([C@@H](C)CO)C[C@H](C)[C@H](CN(C)Cc1ccc3c(c1)OCO3)O2 | 3 | · | · | 5 | · | -11 |

One compound at a time, as listed above. Order of values: PglD DTNB, CAL PDZ FP-1, CAL PDZ FP-2, Yeast UUG start, Vif imaging, ARNT TACC3 PPI
CCn1c(COc2ccccc2C)nnc1SCC(=O)NCc1ccccc1 across the screens: ·, -2, ·, ·, 15, 2
COCC#Cc1cnc2c(c1)C(=O)N([C@@H](C)CO)C[C@H](C)[C@H](CN(C)Cc1ccc3c(c1)OCO3)O2 across the screens: 3, ·, ·, 5, ·, -11
O=C(NCCc1ccccc1)[C@@H]1[C@@H](CO)[C@@H]2Cn3c(cccc3=O)[C@H]1N2C(=O)C1CCCC1 across the screens: 1, ·, ·, 0, ·, -6
Cc1ccc(S(=O)(=O)Nc2cccc3c2O[C@H](CN(C)S(=O)(=O)c2cccs2)[C@@H](C)CN([C@@H](C)CO)C3=O)cc1 across the screens: -2, ·, ·, 1, ·, 1
Nc1nnc(SCC(=O)Nc2nccs2)s1 across the screens: ·, -1, ·, ·, 0, 0

Next part.
| SMILES | PglD DTNB | CAL PDZ FP-1 | CAL PDZ FP-2 | Yeast UUG start | Vif imaging | ARNT TACC3 PPI |
| --- | --- | --- | --- | --- | --- | --- |
| O=C(CN1CCOCC1)NCC[C@H]1CC[C@H](NC(=O)c2ccc3c(c2)OCO3)[C@H](CO)O1 | -1 | · | · | 48 | · | -16 |
| O=C(NCC1CC1)[C@@H]1[C@@H](CO)[C@@H]2Cn3c(ccc(-c4cccc(F)c4)c3=O)[C@@H]2N1CC1CC1 | 2 | · | · | 16 | · | -3 |
| Nc1ncnc(Sc2ccc(Cl)cc2)c1[N+](=O)[O-] | · | 0 | 1 | · | -3 | 49* |
| C[c-]1[c-](C)[c-](C)[c-](C)[c-]1C.[Fe].c1cc2nccc(N3CCCC3)[c-]2c1 (stereo not drawn) | 5 | 0 | 3 | 11 | 6 | 62* |
| c1cc(N2CCCCC2)nc(N2CCCCC2)n1 | -2 | -1 | · | 0 | 9 | -6 |
| O=C(c1ccccn1)N1CC=C(c2ccccc2)CC1 | · | -1 | 194* | · | -1 | 3 |
| COc1ccccc1C#Cc1ccc([C@H]2[C@H](C#N)N(C(=O)C3CCC3)[C@H]2CO)cc1 | 2 | · | · | -7 | · | 20 |
| COc1ccc(/C=N/NC(=O)c2cc[n+]([O-])cc2)cc1 | · | 0 | · | · | 13 | 0 |
| COc1cccc(/C=N/NC(=O)C(c2ccncc2)N2CCOCC2)c1 (stereo not drawn) | -2 | · | · | -5 | 4 | · |
| O=C(N/N=C/c1cc(Br)ccc1O)C(c1ccncc1)N1CCOCC1 (stereo not drawn) | 3 | -2 | -5 | -31 | 7 | 58* |
| O=C(CNC(=O)c1ccccc1)N/N=C/c1cc(Br)ccc1O | 4 | 0 | -3 | -11 | 6 | -2 |
| COc1ccc(/C=N/NC(=O)c2cc[n+]([O-])cc2)cc1O | 7 | -1 | · | -20 | -46 | 72* |
| COc1ccc(/C=N/NC(=O)CNC(=O)c2ccncc2)cc1OC | -6 | -1 | 55* | -18 | 6 | 0 |
